{"sequences": {"note": "Chains of the proteins cited; added tags and fusions are not shown.", "UniProt Q6B856, whole entry": "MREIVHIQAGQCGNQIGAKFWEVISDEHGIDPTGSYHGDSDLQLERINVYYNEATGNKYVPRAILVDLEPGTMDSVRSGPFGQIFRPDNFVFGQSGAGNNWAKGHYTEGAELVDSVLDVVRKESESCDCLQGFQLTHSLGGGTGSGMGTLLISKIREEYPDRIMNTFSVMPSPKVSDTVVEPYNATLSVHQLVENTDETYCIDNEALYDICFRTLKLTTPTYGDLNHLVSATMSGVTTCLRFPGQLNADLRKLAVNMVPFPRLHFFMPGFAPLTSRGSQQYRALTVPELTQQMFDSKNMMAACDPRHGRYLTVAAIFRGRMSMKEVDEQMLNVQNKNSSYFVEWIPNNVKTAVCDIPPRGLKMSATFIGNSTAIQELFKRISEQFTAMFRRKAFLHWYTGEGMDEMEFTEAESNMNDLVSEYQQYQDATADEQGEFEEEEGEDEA", "UniProt P81947, whole entry partner": "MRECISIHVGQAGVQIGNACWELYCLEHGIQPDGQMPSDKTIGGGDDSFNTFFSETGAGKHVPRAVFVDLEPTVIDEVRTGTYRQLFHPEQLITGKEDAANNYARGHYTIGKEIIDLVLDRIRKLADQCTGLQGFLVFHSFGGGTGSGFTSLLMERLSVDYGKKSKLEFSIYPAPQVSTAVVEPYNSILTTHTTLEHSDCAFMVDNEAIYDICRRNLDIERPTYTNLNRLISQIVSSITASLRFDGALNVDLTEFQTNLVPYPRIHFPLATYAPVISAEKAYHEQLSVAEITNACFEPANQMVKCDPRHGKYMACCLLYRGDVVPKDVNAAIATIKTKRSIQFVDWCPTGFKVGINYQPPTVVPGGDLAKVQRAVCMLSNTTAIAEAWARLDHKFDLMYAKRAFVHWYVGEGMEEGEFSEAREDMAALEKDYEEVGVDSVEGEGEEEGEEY"}, "source": "paper PMC5974090", "about": "“A fluorescence anisotropy assay to discover and characterize ligands targeting the maytansine site of tubulin” (Nature Communications, 2018)", "key": {"[1]": {"target": "maytansine site of tubulin (Bos taurus, UniProt Q6B856)", "settings": "read-out: Kd from FcMaytansine displacement; 10 nM FcMaytansine, 4 nM tubulin, 25 °C, mean ± SEM; n = 3"}, "[2]": {"experiment": "Interconversion of the C9'-diastereoisomers of M9 in phosphate buffer", "type": "physicochemical", "settings": "phosphate buffer pH 7.2", "protocol": "The DM1-lysine conjugate M9 (Fig. 3c) was prepared from DM1 according to literature procedures[22] (for details, see Supplementary Information). The reaction produced two high-performance liquid chromatography (HPLC)-separable, but slowly interconverting, C9’-diastereoisomers (designated as M9A and M9B) in an approximately 1:1 ratio, with full equilibration in phosphate buffer pH 7.2 being observed after 24 h. […] The method used to prepare M9 inevitably leads to two diastereoisomeric products, due to the formation of an additional stereocenter at C9’ in the 1,4-addition of DM1 to the maleimido part of the linker precursor and the inherently non-selective nature of the reaction. However, the interconversion rate between M9A and M9B is sufficiently slow to allow the separate assessment of their tubulin-binding affinities."}}}
{"smiles": "COc1cc2cc(c1Cl)N(C)C(=O)C[C@H](OC(=O)[C@H](C)N(C)C(=O)CCSC1CC(=O)N(C[C@H]3CC[C@H](C(=O)NCCCC[C@H](N)C(=O)O)CC3)C1=O)[C@]1(C)O[C@H]1[C@H](C)[C@@H]1C[C@@](O)(NC(=O)O1)[C@H](OC)/C=C/C=C(\\C)C2", "note": "(single isomer, unassigned) [M9A]", "values": [{"measurement": "Kd", "setting": "[1]", "value": 12.6, "unit": "nM"}, {"measurement": "time to full equilibration of the interconverting diastereoisomers", "setting": "[2]", "value": 24, "unit": "h"}]}
{"smiles": "COc1cc2cc(c1Cl)N(C)C(=O)C[C@H](OC(=O)[C@H](C)N(C)C(=O)CCSC1CC(=O)N(C[C@H]3CC[C@H](C(=O)NCCCC[C@H](N)C(=O)O)CC3)C1=O)[C@]1(C)O[C@H]1[C@H](C)[C@@H]1C[C@@](O)(NC(=O)O1)[C@H](OC)/C=C/C=C(\\C)C2", "note": "(single isomer, unassigned) [M9B]", "values": [{"measurement": "Kd", "setting": "[1]", "value": 17.5, "unit": "nM"}, {"measurement": "time to full equilibration of the interconverting diastereoisomers", "setting": "[2]", "value": 24, "unit": "h"}]}
